Experimental data: PubChem BioAssay AID485317 (Broad Institute, 2010)
The list shows a part of the results, in another mix than the full data. Active and inactive are the calls of the source.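 Rule for the calls: active = mean replicate inhibition above about 79%, with every replicate also reaching it (limit read from the data); inconclusive = only one of the two criteria met; inactive = mean below limit and not every replicate reaching it.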

Protein sequences, listed by entry. Tags and fused reporters are not part of them.
UniProt P55789, whole entry: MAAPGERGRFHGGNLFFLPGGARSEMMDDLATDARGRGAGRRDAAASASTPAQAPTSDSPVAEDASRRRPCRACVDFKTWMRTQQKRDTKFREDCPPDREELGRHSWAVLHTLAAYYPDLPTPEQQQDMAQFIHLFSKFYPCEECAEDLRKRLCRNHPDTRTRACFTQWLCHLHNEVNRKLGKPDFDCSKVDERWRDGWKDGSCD

target: FAD-linked sulfhydryl oxidase ALR (Homo sapiens) (UniProt P55789); experiment: inhibitors of human ALR sulfhydryl oxidase, primary screen, biochemical, H2O2 detection, HRP-luminol luminescence, single point (AID 485317); conditions: purified ALR, DTT oxidation, hits give high values, concentration not given here

`Cc1nc2ccc3ccccc3c2o1.O=[N+]([O-])c1cc([N+](=O)[O-])c(O)c([N+](=O)[O-])c1` was tested. Which inhibition did it give?
Its inhibition is active: 98.9%.

For `CN(C)CCOC(=O)C(O)(c1ccccc1)C1CCCC1` (centres undefined), which inhibition is on record?
Its inhibition is inactive: -3.19%.

How did the inhibition turn out when `CN1CCCC(OC(=O)C(c2ccccc2)c2ccccc2)C1` (centres undefined) was run?
Its inhibition is inactive: -4.41%.

Which inhibition does the source give for `COc1ccccc1OP(=O)(Nc1ccc(C)cn1)Oc1ccccc1OC` here?
The inhibition was inactive: -3.6%.

For `Cc1ccc(OP(=O)(Nc2nccs2)Oc2ccc(C)cc2)cc1`, which inhibition is on record?
The inhibition was inactive: -0.917%.

`COc1ccccc1OP(C)(=O)Nc1ccc(Br)cc1` (centres undefined) was tested. Which inhibition did it give?
Its inhibition is inactive: -6.89%.

For `Cc1ccc(N/C(=N/P(=O)(N2CCOCC2)N2CCOCC2)N2CCOCC2)cc1`, which inhibition is on record?
Its inhibition is inactive: 2.59%.

Which inhibition does the source give for `NC(=O)c1cc([N+](=O)[O-])cc([N+](=O)[O-])c1N` here?
Its inhibition is inactive: -29.2%.

`CCc1ccc(OP(C)(=O)O)cc1` was tested. Which inhibition did it give?
The inhibition was inactive: -2.02%.

With `CP(=O)(Nc1ccccn1)Oc1ccccc1` (centres undefined) as the compound, how does the inhibition read?
The inhibition was inactive: -3.21%.

For `Oc1ccccc1CNc1ccccn1`, which inhibition is on record?
Its inhibition is inactive: 8.72%.

How did the inhibition turn out when `Cc1c2non([O-])c-2c(C)[n+](=O)[n+]1[O-]` was run?
Its inhibition is inactive: -1.17%.

Which inhibition does the source give for `O=C(NC(Sc1ccncn1)C(Cl)(Cl)Cl)c1ccccc1` (centres undefined) here?
Its inhibition is inactive: 21%.

With `CC(C)CC(=O)NC(Sc1ccc(Cl)cc1)C(Cl)(Cl)Cl` (centres undefined) as the compound, how does the inhibition read?
The inhibition was inactive: -0.633%.

For `O=[N+]([O-])c1cc([N+](=O)[O-])c(Nc2ccccn2)c([N+](=O)[O-])c1`, which inhibition is on record?
The inhibition was inactive: -25.5%.

With `Cc1c(NP(C)(=O)Oc2ccc(C(C)C)cc2)c(=O)n(-c2ccccc2)n1C` (centres undefined) as the compound, how does the inhibition read?
Its inhibition is inactive: 6.46%.

Which inhibition does the source give for `Cc1ccc(NP(=O)(Oc2ccccc2)Oc2ccccc2)nc1` here?
Its inhibition is inactive: -1.33%.

With `CP(=O)(Oc1ccccc1)N1CCOC1=O` (centres undefined) as the compound, how does the inhibition read?
The inhibition was inactive: 9.99%.

For `CCc1nc2c(n1)c1c(non1O)c1c2no[n+]1[O-]`, which inhibition is on record?
The inhibition was inactive: 15.1%.

How did the inhibition turn out when `O=[N+]([O-])c1cc([N+](=O)[O-])c(CCNc2ccccc2)c([N+](=O)[O-])c1` was run?
The inhibition was inactive: -13.8%.

`CCc1ccc(OP(C)(=O)Nc2cccnc2)cc1` (centres undefined) was tested. Which inhibition did it give?
The inhibition was inactive: 0.526%.

For `COc1ccccc1OP(C)(=O)Nc1c(C)n(C)n(-c2ccccc2)c1=O` (centres undefined), which inhibition is on record?
Its inhibition is inactive: 19.2%.

Which inhibition does the source give for `O=[N+]([O-])c1cccc2n[nH]nc12` here?
Its inhibition is inactive: -3.55%.

`CC(=O)N1C2C3N(C(C)=O)C1C1N(C(C)=O)C(C(N1C(C)=O)N3C(C)=O)N2C(C)=O` was tested. Which inhibition did it give?
The inhibition was inactive: -2.12%.

How did the inhibition turn out when `O=C(OCCCN1CCCC1)C(O)(c1ccccc1)C1CCCCC1` (centres undefined) was run?
The inhibition was inactive: -11.9%.

Which inhibition does the source give for `CCN(CC)CC(O)COC(=O)C(O)(c1ccccc1)C1CCCCC1` (centres undefined) here?
The inhibition was inactive: 6.68%.

How did the inhibition turn out when `COc1ccc(C2=NCC(CBr)S2)cc1` (centres undefined) was run?
The inhibition was inactive: -5.34%.

Which inhibition does the source give for `CC1CCN(C(=O)Oc2c(Cl)cc(Cl)c3cccnc23)CC1` here?
Its inhibition is inactive: 4.14%.

For `CN(C)C(=O)c1c([N+](=O)[O-])cc([N+](=O)[O-])cc1[N+](=O)[O-]`, which inhibition is on record?
The inhibition was inactive: -54.3%.

With `CC(C)=N/N=C(\N)N[N+](=O)[O-]` as the compound, how does the inhibition read?
The inhibition was inactive: -3.57%.

With `CN(C)C(=O)OCCc1n(C)cc[n+]1C` as the compound, how does the inhibition read?
The inhibition was inactive: -3.6%.

With `CCN(/C(=N/P(=O)(N1CCOCC1)N1CCOCC1)N1CCOCC1)c1ccc(OC)cc1` as the compound, how does the inhibition read?
The inhibition was inactive: -12.5%.

How did the inhibition turn out when `CP(=O)(Nc1ccc(Cl)cc1)Oc1ccc(F)cc1` (centres undefined) was run?
Its inhibition is inactive: -2.14%.

With `CC(C)(C)c1ccc(OP(C)(=O)O)cc1` as the compound, how does the inhibition read?
Its inhibition is inactive: 8.05%.

With `Nc1ccc([As](=O)(O)c2ccc(N)cc2)cc1` as the compound, how does the inhibition read?
The inhibition was inactive: -1.2%.

`COc1ccccc1OP(C)(=O)Nc1ccccc1Br` (centres undefined) was tested. Which inhibition did it give?
The inhibition was inactive: -5.2%.

`C[N+]1=C2C=CC=CC=C2SC12C([N+](=O)[O-])=CC([N+](=O)[O-])=C[C-]2[N+](=O)[O-]` (centres undefined) was tested. Which inhibition did it give?
Its inhibition is inactive: -10.9%.

Which inhibition does the source give for `CP(=O)(OC12CC3CC(CC(C3)C1)C2)OC12CC3CC(CC(C3)C1)C2` here?
The inhibition was inactive: -7.02%.

How did the inhibition turn out when `CCOC(=O)c1ccc(NP(C)(=O)Oc2ccc(Cl)cc2)cc1` (centres undefined) was run?
Its inhibition is inactive: -10%.

`O=C(Nc1cc([As](=O)(O)O)ccc1O)c1ccccc1` was tested. Which inhibition did it give?
The inhibition was inactive: -0.303%.

How did the inhibition turn out when `Nc1ccc2c(ccc3cccnc32)n1.O=[N+]([O-])c1cc([N+](=O)[O-])c(O)c([N+](=O)[O-])c1` was run?
The inhibition was inactive: -9.68%.

Which inhibition does the source give for `O=C(O)CNc1ccc([As](=O)(O)O)cc1` here?
The inhibition was inactive: -3.4%.

`O=[N+]([O-])c1ncn(CCn2ncnc2[N+](=O)[O-])n1` was tested. Which inhibition did it give?
The inhibition was inactive: -20.9%.

Which inhibition does the source give for `CC(C)(C)C(=O)NC(Sc1ccncn1)C(Cl)(Cl)Cl` (centres undefined) here?
Its inhibition is inactive: 14.8%.
